Where two headings read alike, the source gives them in different places.
Molecular target: type 1 angiotensin II receptor AGTR1 (Homo sapiens, UniProt P30556)
Assay: AGTR1 calcium flux assay, antagonist mode
Assay type: cell-based

Substance: telmisartan [reference compound]
- IC50: 0.6 nM
- AGTR1 Max Activity (IC50 column pair) (antagonist): 100 % of positive controls
- IC50 (listed as telmisartan): 0.62 nM
